Data on 1 molecule can be found in patent US20180185459A1.

Sequences of proteins named here, by UniProt entry; tags and fusion partners are left off. Residues count along the entry.
ATIII-fondaparinux complex (human antithrombin III with fondaparinux bound) (human), P01008, UniProt P01008, 33-464 limits assumed: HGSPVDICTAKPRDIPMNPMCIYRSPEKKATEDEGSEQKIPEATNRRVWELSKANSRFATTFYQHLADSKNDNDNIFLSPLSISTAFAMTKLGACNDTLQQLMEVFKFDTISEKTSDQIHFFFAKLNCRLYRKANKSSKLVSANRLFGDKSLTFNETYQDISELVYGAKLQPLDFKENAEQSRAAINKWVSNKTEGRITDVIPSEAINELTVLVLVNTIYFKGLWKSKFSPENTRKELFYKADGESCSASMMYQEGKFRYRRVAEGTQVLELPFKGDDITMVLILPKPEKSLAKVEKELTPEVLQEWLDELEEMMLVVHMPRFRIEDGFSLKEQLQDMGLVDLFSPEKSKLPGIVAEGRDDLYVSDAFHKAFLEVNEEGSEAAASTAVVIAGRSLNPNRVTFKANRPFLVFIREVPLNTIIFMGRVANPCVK

This assay has as its target ATIII-fondaparinux complex (human antithrombin III with fondaparinux bound) (human), P01008. In words: kinetic analysis (Dynafit) of fXa inhibition curves with a series of ATIII-fondaparinux and PRT064445 concentrations, purified human proteins. The conditions noted are these: remark: other sources report otherwise.

B1: r-Antidote (processed two-chain polypeptide, human factor Xa triple mutant after removal of the -RKRRKR- linker), P00742 80-179; P00742 235-488 (protein)
chain 1: ANSFLFWNKYKDGDQCETSPCQNQGKCKDGLGEYTCTCLEGFEGKNCELFTRKLCSLDNGDCDQFCHEEQNSVVCSCARGYTLADNGKACIPTGPYPCGKQTLER
chain 2: IVGGQECKDGECPWQALLINEENEGFCGGTILSEFYILTAAHCLYQAKRFKVRVGDRNTEQEEGGEAVHEVEVVIKHNRFTKETYDFDIAVLRLKTPITFRMNVAPACLPERDWAESTLMTQKTGIVSGFGRTHEKGRQSTRLKMLEVPYVDRNSCKLSSSFIITQNMFCAGYDTKQEDACQGDAGGPHVTRFKDTYFVTGIVSWGEGCARKGKYGIYTKVTAFLKWIDRSMKTRGLPKAKSHAPEVITSSPLK
modifications: here or on the partner: non-covalently bound fondaparinux (synthetic pentasaccharide)
With B1, the equilibrium dissociation constant (Kd) was found to be 53 nM.
